## Measured affinities in a library of Ab-14 light chain variants

Source: Engelhart et al. 2022 (doi:10.1038/s41597-022-01779-4), MIT Lincoln Laboratory and A-Alpha Bio; data file from the FLAb repository.

Target: peptide PDVDLGDISGINAS, taken from heptad repeat 2 (HR2) of SARS-CoV-2 spike.

Each scFv is VH, the linker GGGGSGGGGSGGGGS, VL, as in the parent Ab-14, and differs from it in the CDRs of the light chain only.
VH: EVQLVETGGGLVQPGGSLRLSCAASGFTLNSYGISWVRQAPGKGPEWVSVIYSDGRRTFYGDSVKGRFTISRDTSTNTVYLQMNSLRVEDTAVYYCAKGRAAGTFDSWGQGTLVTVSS
VL: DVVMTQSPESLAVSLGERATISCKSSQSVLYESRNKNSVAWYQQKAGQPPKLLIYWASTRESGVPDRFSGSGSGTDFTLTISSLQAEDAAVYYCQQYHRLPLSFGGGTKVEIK

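The starting antibody came from a phage panning campaign against this peptide. In library AAYL50, one, two or three CDR residues were substituted; doubles and triples were drawn at random. Affinity was read by AlphaSeq, a pooled yeast mating assay with surface-displayed partners. Binding brings cells together so that they mate, and sequencing counts the barcode pairs among the diploids. Scores were corrected for input abundance and mapped to Kd with protein pairs of known affinity run in the same pool. The assay was run in three technical replicates.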

Changes read parent residue, position, new residue, counted from the first residue of the VL shown. Scale: log10 of Kd in nM, estimated from mating counts; low values are strong binders. "nd" means that the variant was in the library but no mating with the target was seen in that replicate; the authors take this as a sign of poor binding, and no number exists. In this assay the parent's reference entry averaged 0.65; its copy inside this library read 1.68. As a blank, each scFv also met three strains without target: over library AAYL50, 18% of these pairings were detected, typically at 4.19 and seldom below 2.99. Also given: how often the same scFv was detected with the empty control strains, with their mean in brackets.

changes,"log10 Kd, replicates",empty controls
K24P/N37M/S58C,4.44 / 4.32 / nd,5 of 9 (4.37)
V29D/A57E/L102I,4.00 / 3.53 / 3.52,4 of 9 (3.78)
E32K/N37A/L102H,2.16 / 2.32 / 2.79,3 of 9 (4.24)
S25W/N37G/R99T,1.80 / 1.95 / 2.08,6 of 9 (3.93)
S33P/R34K/S58K,1.10 / 1.42 / 0.79,0 of 9
N37M/E61V/H98R,2.07 / 2.36 / 3.83,1 of 9 (3.01)
Y31A/R34H/Q95R,nd / 2.99 / nd,0 of 9
S33E/K36L/H98R,nd / nd / nd,0 of 9
K24Q/A57S/H98L,nd / nd / nd,0 of 9
E32W/Q96W/R99E,nd / nd / nd,0 of 9
Y97V/H98G/L102V,0.41 / 0.68 / 0.61,7 of 9 (4.61)
R34L/P101M/S103L,3.43 / nd / 3.01,1 of 9 (3.02)
W56K/Q95T/H98A,nd / nd / nd,1 of 9 (3.39)
R34L/N35V/S103A,2.28 / 2.22 / 2.05,1 of 9 (3.82)
Q27H/Q95H,nd / nd / nd,0 of 9
R34P/N37C/S62K,nd / nd / nd,0 of 9
K36C/S38G/Y97M,4.60 / 3.71 / nd,4 of 9 (4.54)
S25V/S26Y/A57F,nd / nd / nd,0 of 9
K24Y/S25M/Y97H,4.01 / 3.92 / 4.74,3 of 9 (4.82)
V29A/E32D/R34G,0.56 / 0.77 / 0.69,4 of 9 (3.57)
R60V/H98A/S103P,nd / nd / 3.99,1 of 9 (3.33)
S33F/R99M/L100I,nd / nd / nd,0 of 9
R34T/R60C/S103D,0.96 / 2.41 / 1.89,0 of 9
Q27K/V29L/R34N,1.23 / 1.25 / 1.30,2 of 9 (4.24)
Y31L/N35Q/R99W,1.06 / 1.22 / 1.25,2 of 9 (3.13)
S25R/R34M/A57S,2.91 / nd / nd,0 of 9
Y31G/N35F/T59N,0.85 / 1.11 / 1.06,1 of 9 (4.26)
Y31W/A57D/T59H,2.63 / 2.34 / 3.25,1 of 9 (3.15)
V39Y/T59W/Q95Y,nd / nd / nd,0 of 9
E32P/N37I/Q95N,nd / nd / nd,1 of 9 (4.24)
K36G/V39N/R60G,5.40 / 4.42 / 4.42,5 of 9 (4.52)
E32K,2.75 / 2.51 / 3.22,2 of 9 (4.55)
S26D/V39H/H98P,nd / nd / nd,7 of 9 (5.04)
V29W/S33Y/S62C,1.79 / 1.71 / 2.26,0 of 9
E32L/S62P/S103A,2.13 / 1.74 / 1.97,3 of 9 (4.20)
E32Y/A57P/R60P,nd / nd / nd,0 of 9
S25R/A40K,nd / nd / nd,3 of 9 (4.87)
V29E/E61G/L100G,0.87 / 0.98 / 1.21,0 of 9
E61L/L102R,nd / 4.07 / 4.35,1 of 9 (4.38)
N37V/A57M/Q95H,nd / nd / nd,1 of 9 (4.01)
W56G/E61V,0.51 / 0.71 / 0.68,0 of 9

Repeated from above, the 4 best binders with a signal in all replicates:

changes,"log10 Kd, replicates",empty controls
Y97V/H98G/L102V,0.41 / 0.68 / 0.61,7 of 9 (4.61)
W56G/E61V,0.51 / 0.71 / 0.68,0 of 9
V29A/E32D/R34G,0.56 / 0.77 / 0.69,4 of 9 (3.57)
Y31G/N35F/T59N,0.85 / 1.11 / 1.06,1 of 9 (4.26)